Patent US9932349B2 (priority 2000, dated 2018)

The chains behind the UniProt entries cited, without tags or fusion partners. Residues count along the entry.
UniProt P41144, whole entry: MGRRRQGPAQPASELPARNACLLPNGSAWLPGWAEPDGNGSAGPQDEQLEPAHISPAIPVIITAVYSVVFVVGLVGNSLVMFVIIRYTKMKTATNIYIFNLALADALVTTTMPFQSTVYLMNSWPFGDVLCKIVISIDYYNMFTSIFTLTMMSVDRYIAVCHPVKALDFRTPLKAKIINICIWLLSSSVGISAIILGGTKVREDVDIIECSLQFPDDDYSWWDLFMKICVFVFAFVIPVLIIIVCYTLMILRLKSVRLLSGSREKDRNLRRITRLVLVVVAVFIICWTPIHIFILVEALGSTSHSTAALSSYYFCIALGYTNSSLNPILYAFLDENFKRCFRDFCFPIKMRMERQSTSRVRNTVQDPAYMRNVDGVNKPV
UniProt P41145, whole entry: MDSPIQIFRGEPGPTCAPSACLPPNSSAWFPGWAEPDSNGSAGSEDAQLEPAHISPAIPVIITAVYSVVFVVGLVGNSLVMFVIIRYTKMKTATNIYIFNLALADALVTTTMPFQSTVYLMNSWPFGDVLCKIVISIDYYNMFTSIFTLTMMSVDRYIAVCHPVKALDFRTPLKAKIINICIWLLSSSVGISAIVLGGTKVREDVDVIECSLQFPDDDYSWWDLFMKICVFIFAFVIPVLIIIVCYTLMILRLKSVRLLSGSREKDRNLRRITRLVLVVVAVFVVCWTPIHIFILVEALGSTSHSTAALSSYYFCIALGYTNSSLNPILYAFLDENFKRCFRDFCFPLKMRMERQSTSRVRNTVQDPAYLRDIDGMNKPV
UniProt P35372, whole entry: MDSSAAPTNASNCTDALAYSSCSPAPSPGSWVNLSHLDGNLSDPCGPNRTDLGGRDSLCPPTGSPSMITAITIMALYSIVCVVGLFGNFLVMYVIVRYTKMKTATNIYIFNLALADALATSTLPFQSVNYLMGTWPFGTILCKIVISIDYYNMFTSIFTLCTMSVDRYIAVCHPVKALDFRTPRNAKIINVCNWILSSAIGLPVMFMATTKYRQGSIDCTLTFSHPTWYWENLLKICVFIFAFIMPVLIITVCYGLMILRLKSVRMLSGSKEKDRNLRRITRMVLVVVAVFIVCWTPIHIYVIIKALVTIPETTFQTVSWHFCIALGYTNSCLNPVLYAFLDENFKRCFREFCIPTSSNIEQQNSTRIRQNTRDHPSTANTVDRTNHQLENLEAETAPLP
UniProt A0ACM8Q262, 1-400: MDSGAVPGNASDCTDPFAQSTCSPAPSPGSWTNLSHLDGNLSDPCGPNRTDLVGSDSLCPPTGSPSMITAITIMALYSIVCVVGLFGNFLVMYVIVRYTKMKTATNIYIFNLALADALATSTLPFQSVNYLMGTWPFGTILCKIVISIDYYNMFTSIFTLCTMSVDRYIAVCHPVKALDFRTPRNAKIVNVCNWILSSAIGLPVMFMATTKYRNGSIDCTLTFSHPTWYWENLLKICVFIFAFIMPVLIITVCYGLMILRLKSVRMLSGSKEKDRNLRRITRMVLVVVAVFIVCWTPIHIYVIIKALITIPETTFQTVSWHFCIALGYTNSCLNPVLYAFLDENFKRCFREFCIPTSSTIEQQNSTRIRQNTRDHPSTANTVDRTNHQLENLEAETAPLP

Tests used:
δ opioid receptor = δ opioid receptor (Cavia porcellus, UniProt A0A286XTF2); assay: opioid receptor binding in guinea pig brain, [3H]Naltrindole; conditions: read-out: [3H] Naltrindole (δ), Table 4 other series
κ opioid receptor = κ opioid receptor (Cavia porcellus, UniProt P41144); assay: opioid receptor binding in guinea pig brain, [3H]U69,593; conditions: read-out: [3H] U69,593 (κ), Table 4 other series
human δ opioid receptor = human δ opioid receptor (Homo sapiens, UniProt P41143); assay: binding to cloned human receptor in CHO cell membranes, [3H]Naltrindole; conditions: read-out: [3H] Naltrindole (δ); Table 4 other series; marked a: chinese hamster ovary
human κ opioid receptor = human κ opioid receptor (Homo sapiens, UniProt P41145); assay: binding to cloned human receptor in CHO cell membranes, [3H]U69,593; conditions: read-out: [3H] U69,593 (κ); Table 4 other series; marked a: chinese hamster ovary
human μ opioid receptor = human μ opioid receptor (Homo sapiens, UniProt P35372); assay: binding to cloned human receptor in CHO cell membranes, [3H]DAMGO; conditions: read-out: [3H] DAMGO (μ); Table 4 other series; marked a: chinese hamster ovary
μ opioid receptor = μ opioid receptor (Cavia porcellus, UniProt A0ACM8Q262); assay: opioid receptor binding in guinea pig brain, [3H]DAMGO; conditions: read-out: [3H] DAMGO (μ), Table 4 other series

Row | Structure (SMILES) | Ki (δ opioid receptor) [nM] | Ki (κ opioid receptor) [nM] | Ki (human δ opioid receptor) [nM] | Ki (human κ opioid receptor) [nM] | Ki (human μ opioid receptor) [nM] | Ki (μ opioid receptor) [nM]
1 | CNC(=O)c1ccc2c3c1O[C@H]1[C@@H](O)C=C[C@H]4[C@@H](C2)N(C)CC[C@@]341 | > 10000 | > 10000 | – | – | – | –
2 | O=CNc1ccc2c3c1OC1C(=O)CCC4(O)C(C2)N(CC2CC2)CCC314 (single isomer, unassigned) | – | – | 280 | 2.3 | 4.1 | –
3 | NC(=O)c1ccc2c3c1O[C@H]1c4[nH]c5ccccc5c4C[C@@]4(O)[C@@H](C2)N(CC2CC2)CC[C@]314 | 0.33 | 99 | – | – | – | 47
